Laboratory results as given in ChEMBL document CHEMBL2057167, “Rapid identification of ETP-46992, orally bioavailable PI3K inhibitor, selective versus mTOR” (Bioorg Med Chem Lett, 2012).

Sequences of proteins named here, by UniProt entry; tags and fusion partners are left off.
UniProt P42336, whole entry: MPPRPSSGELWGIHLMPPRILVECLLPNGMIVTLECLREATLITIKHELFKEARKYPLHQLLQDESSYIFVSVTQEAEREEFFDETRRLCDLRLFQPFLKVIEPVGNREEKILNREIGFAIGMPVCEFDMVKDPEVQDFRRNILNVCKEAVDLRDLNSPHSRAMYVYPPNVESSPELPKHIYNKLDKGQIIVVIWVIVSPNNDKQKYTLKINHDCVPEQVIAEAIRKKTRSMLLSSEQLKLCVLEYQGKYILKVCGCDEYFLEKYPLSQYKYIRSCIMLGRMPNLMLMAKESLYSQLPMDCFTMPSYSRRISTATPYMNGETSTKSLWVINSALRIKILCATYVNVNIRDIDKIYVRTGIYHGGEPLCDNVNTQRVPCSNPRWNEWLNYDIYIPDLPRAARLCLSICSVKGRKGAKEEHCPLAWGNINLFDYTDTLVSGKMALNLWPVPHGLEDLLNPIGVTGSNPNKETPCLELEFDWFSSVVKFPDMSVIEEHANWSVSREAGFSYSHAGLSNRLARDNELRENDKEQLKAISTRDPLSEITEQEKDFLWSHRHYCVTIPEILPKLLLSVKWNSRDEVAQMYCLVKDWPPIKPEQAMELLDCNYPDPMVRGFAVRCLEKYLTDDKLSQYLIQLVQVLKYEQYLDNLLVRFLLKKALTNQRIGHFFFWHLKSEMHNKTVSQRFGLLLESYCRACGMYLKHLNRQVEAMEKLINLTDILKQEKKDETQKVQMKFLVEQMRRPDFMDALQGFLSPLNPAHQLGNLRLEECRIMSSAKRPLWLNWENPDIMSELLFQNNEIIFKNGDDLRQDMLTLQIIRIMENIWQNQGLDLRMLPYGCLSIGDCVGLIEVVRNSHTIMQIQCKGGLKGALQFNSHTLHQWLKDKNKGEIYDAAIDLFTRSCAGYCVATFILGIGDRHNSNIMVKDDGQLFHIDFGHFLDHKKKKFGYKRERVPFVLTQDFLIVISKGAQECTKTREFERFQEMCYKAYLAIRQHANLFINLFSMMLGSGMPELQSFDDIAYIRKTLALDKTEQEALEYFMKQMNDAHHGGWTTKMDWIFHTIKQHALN
UniProt P42336, whole entry H1047R: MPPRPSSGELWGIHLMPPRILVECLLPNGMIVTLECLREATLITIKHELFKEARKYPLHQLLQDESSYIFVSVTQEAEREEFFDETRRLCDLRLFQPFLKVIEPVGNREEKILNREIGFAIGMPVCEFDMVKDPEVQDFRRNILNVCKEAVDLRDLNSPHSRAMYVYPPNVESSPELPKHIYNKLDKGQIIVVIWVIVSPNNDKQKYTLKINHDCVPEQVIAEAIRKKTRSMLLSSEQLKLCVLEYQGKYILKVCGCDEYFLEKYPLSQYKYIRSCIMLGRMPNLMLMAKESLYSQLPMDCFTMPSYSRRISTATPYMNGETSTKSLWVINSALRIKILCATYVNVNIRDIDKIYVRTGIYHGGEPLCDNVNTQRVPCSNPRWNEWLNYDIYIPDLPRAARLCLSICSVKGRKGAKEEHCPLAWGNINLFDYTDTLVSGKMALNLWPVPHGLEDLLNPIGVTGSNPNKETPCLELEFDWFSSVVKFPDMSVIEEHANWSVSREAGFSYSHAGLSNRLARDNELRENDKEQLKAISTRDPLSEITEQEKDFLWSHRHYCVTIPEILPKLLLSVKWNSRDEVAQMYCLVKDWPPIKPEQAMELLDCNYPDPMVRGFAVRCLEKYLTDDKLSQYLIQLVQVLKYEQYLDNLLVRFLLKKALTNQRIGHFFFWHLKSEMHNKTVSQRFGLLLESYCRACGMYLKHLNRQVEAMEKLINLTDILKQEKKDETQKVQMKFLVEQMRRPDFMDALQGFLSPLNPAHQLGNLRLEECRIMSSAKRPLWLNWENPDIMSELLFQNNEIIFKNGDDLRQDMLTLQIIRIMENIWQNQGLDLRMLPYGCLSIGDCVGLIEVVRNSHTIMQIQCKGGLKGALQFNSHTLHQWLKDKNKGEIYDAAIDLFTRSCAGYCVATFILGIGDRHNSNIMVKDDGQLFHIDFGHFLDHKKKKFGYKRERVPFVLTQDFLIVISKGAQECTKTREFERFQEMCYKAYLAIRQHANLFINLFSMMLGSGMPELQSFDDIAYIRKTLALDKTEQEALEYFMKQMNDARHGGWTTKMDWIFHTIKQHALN
UniProt P42336, whole entry E545K: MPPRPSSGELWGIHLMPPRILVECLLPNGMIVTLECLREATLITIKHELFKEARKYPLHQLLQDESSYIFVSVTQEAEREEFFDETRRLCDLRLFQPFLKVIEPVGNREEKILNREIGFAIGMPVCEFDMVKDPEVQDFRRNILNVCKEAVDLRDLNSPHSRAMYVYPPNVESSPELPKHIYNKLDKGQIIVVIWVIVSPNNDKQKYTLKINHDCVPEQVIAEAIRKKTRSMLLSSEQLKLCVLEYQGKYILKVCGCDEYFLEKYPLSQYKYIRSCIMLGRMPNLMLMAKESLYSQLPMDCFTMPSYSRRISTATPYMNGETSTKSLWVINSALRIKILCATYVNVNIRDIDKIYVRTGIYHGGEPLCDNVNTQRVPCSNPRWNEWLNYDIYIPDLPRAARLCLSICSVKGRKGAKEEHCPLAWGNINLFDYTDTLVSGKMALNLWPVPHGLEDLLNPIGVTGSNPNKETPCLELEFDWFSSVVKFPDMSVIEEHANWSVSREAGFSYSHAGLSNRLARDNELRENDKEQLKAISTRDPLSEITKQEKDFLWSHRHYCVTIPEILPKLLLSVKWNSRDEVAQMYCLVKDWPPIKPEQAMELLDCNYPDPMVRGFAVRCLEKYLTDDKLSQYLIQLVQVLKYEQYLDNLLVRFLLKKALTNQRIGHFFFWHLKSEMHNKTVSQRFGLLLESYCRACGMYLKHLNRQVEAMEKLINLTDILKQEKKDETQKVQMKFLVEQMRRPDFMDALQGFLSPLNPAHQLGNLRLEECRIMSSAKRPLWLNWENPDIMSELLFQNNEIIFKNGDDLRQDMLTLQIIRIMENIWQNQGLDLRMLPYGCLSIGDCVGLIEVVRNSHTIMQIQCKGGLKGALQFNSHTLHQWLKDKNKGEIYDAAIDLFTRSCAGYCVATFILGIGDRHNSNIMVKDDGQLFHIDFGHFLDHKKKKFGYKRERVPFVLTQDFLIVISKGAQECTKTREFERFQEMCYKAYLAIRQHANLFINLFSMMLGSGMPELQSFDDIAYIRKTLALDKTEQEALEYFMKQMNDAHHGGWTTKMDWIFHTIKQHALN
UniProt P42336, whole entry E542K: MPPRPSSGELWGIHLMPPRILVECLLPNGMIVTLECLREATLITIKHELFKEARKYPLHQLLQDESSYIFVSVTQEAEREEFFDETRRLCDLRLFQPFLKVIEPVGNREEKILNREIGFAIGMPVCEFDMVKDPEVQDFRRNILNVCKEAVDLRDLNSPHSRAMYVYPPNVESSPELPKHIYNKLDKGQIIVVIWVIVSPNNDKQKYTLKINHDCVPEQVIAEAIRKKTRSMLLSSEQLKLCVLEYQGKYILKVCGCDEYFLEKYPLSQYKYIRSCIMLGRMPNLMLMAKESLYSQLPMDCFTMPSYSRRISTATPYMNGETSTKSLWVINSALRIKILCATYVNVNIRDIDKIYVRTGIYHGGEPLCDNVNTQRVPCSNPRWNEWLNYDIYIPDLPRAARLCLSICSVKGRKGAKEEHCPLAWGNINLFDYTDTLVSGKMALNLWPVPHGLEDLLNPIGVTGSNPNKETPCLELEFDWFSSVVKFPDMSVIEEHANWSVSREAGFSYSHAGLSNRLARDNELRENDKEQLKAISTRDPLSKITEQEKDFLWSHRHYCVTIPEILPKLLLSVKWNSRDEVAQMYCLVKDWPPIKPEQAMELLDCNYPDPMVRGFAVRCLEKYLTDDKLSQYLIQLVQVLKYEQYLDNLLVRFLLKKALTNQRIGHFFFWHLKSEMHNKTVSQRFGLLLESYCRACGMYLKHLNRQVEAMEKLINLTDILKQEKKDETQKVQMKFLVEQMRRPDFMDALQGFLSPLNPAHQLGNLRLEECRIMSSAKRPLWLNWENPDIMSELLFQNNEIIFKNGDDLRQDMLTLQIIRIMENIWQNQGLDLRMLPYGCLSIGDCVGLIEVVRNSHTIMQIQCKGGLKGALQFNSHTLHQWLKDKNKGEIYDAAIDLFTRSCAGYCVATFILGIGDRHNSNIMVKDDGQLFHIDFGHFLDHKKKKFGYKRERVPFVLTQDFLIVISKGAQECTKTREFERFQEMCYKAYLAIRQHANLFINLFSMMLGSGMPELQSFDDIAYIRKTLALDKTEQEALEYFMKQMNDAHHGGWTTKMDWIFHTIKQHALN

Columns and labels:
[1] = biological target: Phosphatidylinositol 4,5-bisphosphate 3-kinase catalytic subunit alpha isoform (Homo sapiens, UniProt P42336)
[2] = biological target: Phosphatidylinositol 4,5-bisphosphate 3-kinase catalytic subunit alpha isoform (Homo sapiens, UniProt P42336, H1047R)
[3] = biological target: Phosphatidylinositol 4,5-bisphosphate 3-kinase catalytic subunit alpha isoform (Homo sapiens, UniProt P42336, E545K)
[4] = biological target: Phosphatidylinositol 4,5-bisphosphate 3-kinase catalytic subunit alpha isoform (Homo sapiens, UniProt P42336, E542K)

SMILES: COCCNC(=O)c1nc2c(N3CCOCC3)nc(-c3cnc(N)nc3)cn2c1C
- Ki [1]: 2.4 nM
- Ki [2]: 2.3 nM
- Ki [3]: 1.9 nM
- Ki [4]: 3.1 nM
